Test results published in EP1334195B1, “ANALOGUES, AGONISTS, ANTAGONISTS AND VARIANTS OF THE OXIDOREDUCTASE ENZYME ACTIVITY OF THE MACROPHAGE-MIGRATION INHIBITION FACTOR (MIF) AS IMMUNOMODULATORS, MEDICAMENTS, DIAGNOSTICS AND SCREENING AGENTS IN INFLAMMATORY AND IMMUNE DISEASES” (Fraunhofer-Gesellschaft zur Förderung der angewandten …, priority 2000, dated 2007).

Experiments:
[1] = HED oxidoreductase test of immobilised MIF / MIFARs; assay type: biochemical
Description: MIF-Pep-161 oder humanes rekombinantes MIF oder Mono-MIF-Rekombein-1 wurde biotinyliert und an einen mit Streptavidin funktionalisierten Siliciumwafer gebunden und die MIF-Immobilisierung durch grenzflächentechnische Analytik wie Ellipsometrie und Schichtdickenmessung bestätigt. So immobilisiertes MIF wurde dann auf seine Oxidoreduktaseaktivität untersucht. Dazu wurde ein definiertes Waferstück in ein Reaktionsgefäß eingebracht und dort mit der Reaktionslösung des HED-Oxidoreduktasetests in Kontakt gebracht (siehe z. B. Kleemann et al., 1998a). Nach 10 Minuten wurde diese Lösung wieder abpipettiert und die Menge an umgesetzten HEDs im Fotometer bestimmt. Immobilisiertes MIF zeigte 64+/-7 % Aktivität im Vergleich zur Aktivität von Wildtyp-MIF im Standardassay in Lösung. Wurde MIF kovalent an einen aminofunktionalisierten Wafer gebunden, wurden noch ca. 39 % Aktivität gemessen. Die Immobilisierung von MIF an CNBr-aktivierte Sepharose als Träger (nach Muronetz et al., 1988) war ebenfalls erfolgreich. So hatte immobilisiertes MIF 71+/-11 % Aktivität im Vergleich zur Kontrollmessung in Lösung.

[2] = test system: mikrovaskulären Endothelzellen; test: Cell proliferation assay in microvascular endothelial cells; assay type: cell-based; conditions: Figure 5
Description: Figur 5 zeigt, dass ähnliche biologische Aktivitäten in einem Zellproliferationsassay in mikrovaskulären Endothelzellen beobachtet werden. In diesem Fall inhibieren MIF und MIF-Pep-161 das Zellwachstum, was mit der Induktion des Zellzyklusinhibitors p27 (siehe Figur 4) korrespondiert; die Serinmutante von MIF-Pep-161 zeigt keinen Effekt.

[3] = test system: Insulin; test: Insulin reduction assay (catalytic redox activity); assay type: biochemical; conditions: peptide at 40 µM; result in words
Description: (§1) Oxidationsstudien mit anschließender HPLC-Analytik oder Untersuchungen durch Circulardichroismus-Spektropolarimetrie zeigten dann auch, dass MIF-Pep-161 eine starke Tendenz zur Ausbildung einer intramolekularen Disulfidbrücke hat. Dies zeigte sich durch die für Disulfidbrücken charakteristische Erhöhung des φ-Wertes von oxidiertem MIF-Pep-161 im Nah-UV-GD bei ∼275 nm sowie durch den ebenfalls charakteristischen Anstieg der β-Turn-Konformation (negativer Peak bei -225 nm im Fern-UV-CD). Dieser geht auf die durch das Disulfid induzierte Loopstabilisierung zurück, welche die entsprechende β-Turnstruktur stabilisiert. Parallel dazu wurde eine entsprechend verringerte random coil-Struktur bei oxidiertem MIF-Pep-161 gegenüber reduzietem MIF-Pep-161 beobachtet. Diese Daten zeigen eindeutig, dass MIF-Pep-161 trotz der geringen Molekülgröße eine Sekundärstruktur ausbildet und eine reaktive Dithiolstruktur enthält. Bei den durch CD analysierten Oxidationsstudien von MIF-Pep-161 wurde experimentell wie folgt vorgegangen: MIF-Pep-161 wurde entweder mit DTT reduziert oder durch Luftoxidation oxidiert (100 µM Peptid in 10 mM Tris-HCl, pH 8,0) beziehungsweise reduziertes MIF-Pep-161 wieder reoxidiert. Bei der Oxidation haben die Cystein-Thiole Gelegenheit, inter- oder intramolekulare Disulfide auszubilden. […]

[4] = test system: p27-Kip1; test: Modulation of cellular p27-Kip1 levels in NIH 3T3 fibroblasts; assay type: cell-based; conditions: peptides 3.3 µM (Figure 4), oxidised and reduced form comparable
Description: MIF reguliert über die Bindung an JAB1 zentrale Zellzyklusvorgänge (Kleemann et al., Nature 408, 2000). Es wurde überprüft, ob das MIF-Pep-161-Peptid ebenfalls solch eine zellregulatorische Aktivität aufweist. Hierzu wurde untersucht, ob MIF-Pep-161 die zellulären Konzentrationen des Zellzyklusinhibitors p27-Kip1 modulieren kann. NIH 3T3-Fibroblasten wurden wie in Kleemann et al. (Nature 408, 2000) beschrieben kultiviert und induziert und mit MIF bzw. den MIFAR-Peptiden behandelt.

[5] = Oxidation study of the peptide (air oxidation, HPLC and LC-MS analysis); assay type: physicochemical; conditions: 100 µM peptide in 10 mM Tris-HCl, pH 8,0
Description: as §1

[6] = Solubility in physiological buffers (PBS, TBS) and H2O; assay type: physicochemical; conditions: aqueous buffer; physiological buffers such as PBS or TBS, also H2O; read-out: löslich (Konzentration)
Experimental: Im Zusammenhang mit der vorliegenden Erfindung wird unter löslich verstanden, dass das Derivat in physiologischen Puffern wie PBS oder TBS sowie auch in H2O löslich ist. Die Derivate sind auch bei weit höheren Konzentrationen (MIF 50-65 zum Beispiel bei 1 mM vs. ≤ 8 µm bei C60S MIF) löslich.

[7] = test system: THP-1-Zellen; test: Glucocorticoid overriding test in THP-1 monocyte line (TNF ELISA); assay type: cell-based, human; conditions: THP-1 cells, Dexamethason 10^-6 M, 1 µg/ml LPS, 4 h, TNF by ELISA; Figure 3
Description: Das MIF-Pep-161-Peptid weist MIF-artige immunologische Aktivität im Glucocorticoid-Overriding-Test auf (siehe Beispiel 2). Der originär beschriebene in der Forschung eingesetzte Glucocorticoid-Overriding-Test in primären Blutmonozyten aus Spenderblut ist jedoch für pharmakologische Screeningtests ungeeignet, da der Test eine Spenderabhängige Variabilität aufweist und primäre Blutmonozyten nicht in den für Screeningansätze benötigten großen Mengen zur Verfügung stehen. Es wurde daher untersucht, ob die Glucocorticoid-Overriding-Aktivität von MIF-Pep-161-Peptid auch in einer für Screeningzwecke geeigneten Monozytenlinie gemessen werden kann. Hierzu wurde der Glucocorticoid-Overriding-Test zunächst in der humanen THP-1-Zelllinie etabliert. Hierzu mussten einige der Testparameter wie die Inkubationszeit und die Dexamethasonkonzentration neu adaptiert werden. Der optimierte Test in THP-1-Zellen ist im Folgenden beschrieben: Es werden THP-1-Zellen (human acute monocytic leukemia cell line) verwendet. Die Zellen werden in RPMI 1640+ 10% FCS; 2 mM L-Glutamine; 100 U/ml Pen/Strep kultiviert. Alle Lösungen zuzugebender Stoffe werden 100-fach konzentriert angesetzt, so dass im Assay je 5 µl pro well zugegeben werden können. Dexamethason wird in EtOH gelöst, dann in Medium weiterverdünnt. LPS wird vor der Verdünnung für 5 min ultrabeschallt. […]

[8] = test system: Macrophagen; test: Glucocorticoid overriding assay (macrophage activation test, per Calandra et al. 1995); assay type: cell-based; conditions: 0,6 µM or 6,6 µM peptide; 1 µg/ml LPS, 10^-9 M Dex
Description: as §1

[9] = test system: Jab1; test: Competition of MIF-Jab1 binding in TNT reticulocyte lysate system (anti-MIF IP / anti-biotin Western blot); conditions: Figure 1; result in words
Description: Es wurden in vitro-Studien in einem TNT-Retikulozytenlysatsystem durchgeführt. Die Figur 1 stellt einen Anti-Biotin-S-HRP Westernblot dar. […] Gleiches gilt für das 16 Aminosäuren lange MIF-Derivat mit den Aminosäuren 50-65 von Wildtyp-MIF, wobei die Aminosäuren Cys57 und Cys60 durch Ser57 und Ser60 ausgetauscht sind.

Compound: CC[C@H](C)[C@H](NC(=O)[C@H](CO)NC(=O)[C@H](Cc1c[nH]cn1)NC(=O)[C@H](CC(C)C)NC(=O)[C@H](CO)NC(=O)[C@H](CS)NC(=O)[C@H](CC(C)C)NC(=O)[C@H](C)NC(=O)[C@H](CS)NC(=O)[C@@H]1CCCN1C(=O)[C@H](CCC(=O)O)NC(=O)[C@H](CO)NC(=O)[C@H](CO)NC(=O)CNC(=O)CNC(=O)[C@@H](N)Cc1ccccc1)C(=O)O [MIF-Pep-161]
- Aktivität i.V. zu MIF ([1]; compared with MIF): 12 +/- 3%
- Aktivität i.V. zum Peptid / Rekombein in Lösung ([1]; compared with the same substance in solution): 33 +/- 9%
- Effekt auf das Zellwachstum [2]: inhibieren
- katalytische Aktivität [3]: signifikante kataytische Aktivität
- p27-modulierende Zellaktivität [4]: zu MIF vergleichbare p27-modulierende Zellaktivität
- Anteil intramolekularer Disulfide [5]: > 90%
- solubility [6]: ≥ 1000 µM
- Glucocorticoid-Overriding-Aktivität [7]: gute Aktivität
- MIF-Bioaktivität (Glucocorticoid-Overriding) [8]: maximale MIF-Bioaktivität
- Kompetition mit Wildtyp-MIF für die Bindung mit Biotin markiertem Jab1 [9]: kompetiert in konzentrationsabhängiger Weise
